# Measurements published in patent publication US9371322B2, “Bicyclic aza-amides for treatment of psychiatric disorders” (MAX-PLANCK-GESELLSCHAFT ZUR FÖRDERUNG DER WISSENSCHAFTEN …, priority 2012, dated 2016).
# Protein sequences, listed by entry. Tags and fused reporters are not part of them. Residues count along the entry.
# UniProt Q02790, 50-138 limits assumed: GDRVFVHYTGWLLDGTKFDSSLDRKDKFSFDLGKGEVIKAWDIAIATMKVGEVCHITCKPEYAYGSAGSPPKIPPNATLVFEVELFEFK
# UniProt Q13451, 42-130 limits assumed: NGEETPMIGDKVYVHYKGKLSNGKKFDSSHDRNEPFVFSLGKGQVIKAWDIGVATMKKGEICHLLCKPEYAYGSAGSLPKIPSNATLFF
# UniProt P62942, whole entry: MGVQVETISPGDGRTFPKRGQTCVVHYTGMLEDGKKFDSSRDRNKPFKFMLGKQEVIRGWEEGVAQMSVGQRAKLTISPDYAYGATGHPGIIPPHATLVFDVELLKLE
# Assays:
# FKBP52 = FKBP52 (Homo sapiens, UniProt Q02790); assay: Competitive fluorescence polarization assay, binding to FKBP52; settings: read-out: FKBP52 Ki, FKBP52FK1, fluorescent tracer 20 nM final, 30 min room temperature
# FKBP51 = FKBP51 (Homo sapiens, UniProt Q13451); assay: Competitive fluorescence polarization assay, binding to FKBP51; settings: read-out: FKBP51 Ki, FKBP51FK1, fluorescent tracer 20 nM final, 30 min room temperature
# FKBP12 = FKBP12 (Homo sapiens, UniProt P62942); assay: Competitive fluorescence polarization assay, binding to FKBP12
smiles,measurement,setting,value
CCC(C)(C)C(=O)C(=O)N1C2CCCC1C(=O)N(CCOc1ccc(OC)c(OC)c1)C2 (stereo not shown),Ki,FKBP52,> 100 µM
same,Ki,FKBP51,> 100 µM
same,FKBP12 ligand efficiency (LE),"FKBP12; LE=(ΔG)/N, ΔG=−RTlnKi, RT=0.6, N non-hydrogen atoms",0.24
same,Ki,"FKBP12; read-out: FKBP12 Ki, fluorescence polarization, fluorescent tracer 20 nM final, 30 min room temperature",3.5 µM
